Test results reported in ChEMBL document CHEMBL1140323, “Biaryl ureas as potent and orally efficacious melanin concentrating hormone receptor 1 antagonists for the treatment of obesity” (J Med Chem, 2005).

Sequences of proteins named here, by UniProt entry; tags and fusion partners are left off.
UniProt Q99705, whole entry: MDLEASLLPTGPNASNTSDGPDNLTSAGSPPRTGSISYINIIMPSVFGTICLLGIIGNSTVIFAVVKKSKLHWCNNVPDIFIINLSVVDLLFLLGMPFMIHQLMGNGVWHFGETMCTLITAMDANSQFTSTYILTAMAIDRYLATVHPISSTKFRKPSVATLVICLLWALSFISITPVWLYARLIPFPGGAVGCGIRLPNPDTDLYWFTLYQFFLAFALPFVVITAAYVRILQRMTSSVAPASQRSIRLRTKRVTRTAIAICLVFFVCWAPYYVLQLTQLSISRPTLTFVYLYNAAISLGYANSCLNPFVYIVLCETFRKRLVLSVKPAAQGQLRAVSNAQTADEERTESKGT

Molecular target: Melanin-concentrating hormone receptor 1 (Homo sapiens, UniProt Q99705)
Experiment: Inhibition of calcium influx into cells expressing hMCH-R1 in FLIPR assay
Format: functional

SMILES	Kb
N#Cc1cccc(-c2ccc(N(C(=O)Nc3cc(Cl)cc(Cl)c3)C3CCN(C4CCCC4)CC3)cc2)c1	5.5 nM
N#Cc1cccc(-c2ccc(N(C(=O)Nc3ccc(F)c(Cl)c3)C3CCN(C4CCCC4)CC3)cc2)c1	1.3 nM
